miR-21 reporter: raises the signal of a miR-21 reporter; HeLa miR-21 FLuc reporter, luciferase, 48 h; Potency, µM (top dose mostly 38.3 µM); AID 2288; 340,000 tested, under 10 active; active = well fitted rising curve with a large enough effect; inconclusive = small, poorly fitted or top-dose-only effect; inactive = no such curve, though single readings can be large or run the other way;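 note: miR-21 action dims this reporter so a rising signal means less miR-21 action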
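HeLa miR-21-FLuc reporter line, endogenous miR-21; 2000 cells/well in DMEM/10% FBS; compound titration up to ~40uM final, 48 h, 37 degree Celsius; luciferase detection reagent, 15 min lysis, CCD luminescence.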
A549 tox: kills or reduces viability of A549 cells in Nrf2 counter-screen | 0.16% of 390,000 active | AID 504648 | A549 ARE-Fluc cells, CellTiter-Fluor viability, 18-24 h | Potency, µM (doses to about 46 µM), usual class: inhibitors
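A549 ARE-Fluc cells in 5% FBS OPTI-MEM, 5000 cells/well, rested 2 h then exposed to compounds in concentration-response for 18-24 h at 37 °C. Viability by CellTiter-Fluor fluorescence (Ex 405/Em 525) after 30 min; luciferase luminescence (BugLite, 15 min, RT) read afterwards.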
Nrf2 inh: blocks Nrf2 signaling. A549 ARE-Fluc reporter, luciferase luminescence, 18-24 h. Potency, µM (series often up to 46 µM), hits mostly inhibitors. 2.1% of 360,000 active; also: nearly all actives have a fitted effect of over 60% in size
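Nrf2 function is reported as luminescence of an ARE-controlled luciferase in A549 cells. Compounds were tested at several concentrations, and a CellTiter-Fluor read on the same wells flagged cytotoxicity.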
Nrf2 ARE act: activators of Nrf2 (ARE) signaling | AREc32 ARE-luciferase reporter (MCF7-derived line), luminescence, 24 h | 0.31% of 410,000 active | Potency, µM (series often up to 46.1 µM), actives largely listed as activators; also: nearly all actives have a fitted effect of over 65% in size
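Each well held 1000 AREc32 cells, which were incubated with compound for 24 hr at 37 deg C after overnight attachment, and ARE reporter activity was quantified by firefly luciferase luminescence.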
B2AR arrestin: recruits beta-arrestin to the human beta2-adrenergic receptor | P07550 | beta-arrestin recruitment to beta2AR, cell-based reporter | Potency, µM (titrated, usually from 46.1 µM), hits mostly activators | 0.02% of 330,000 active | AID 492947; also: nearly all actives have a fitted effect of over 65% in size
Of the large screens only hits and unclear results are named; the others gave an inactive call. An excerpt weighted towards active compounds, which were near 2.2% of everything screened. Unless noted, calls follow the shape of the dose curve; as a rule, active = well fitted curve in the direction sought with a large enough effect; inconclusive = small, poorly fitted or top-dose-only effect, or another doubt; inactive = no such curve, though single readings can be large; an effect the other way counts as inactive or inconclusive.

CCc1nc(N2CCN(C(C)=O)CC2)c2c3c(sc2n1)CC(C(C)(C)C)CC3 (centres undefined)	Nrf2 inh 18µM
CN(C)S(=O)(=O)c1ccc(C(=O)NCCSc2ccc(Br)cc2)cc1	A549 tox inconclusive, Nrf2 inh 21µM
O=C(NCCSc1ccccc1)c1ccc(Br)cc1	A549 tox inconclusive, Nrf2 inh inconclusive
COc1cccc2sc(NC(=O)c3ccc(S(=O)(=O)N4CCC(C)CC4)cc3)nc12	none (no result: Nrf2 inh, B2AR arrestin)
COc1cc2ncnc(NCc3ccc(C)cc3)c2cc1OC	none
COc1cc2ncnc(NCCc3ccccc3)c2cc1OC	Nrf2 inh 23µM
COc1ccc(CCNc2ncnc3cc(OC)c(OC)cc23)cc1OC	Nrf2 inh 21µM
COc1cccc(CNC(=O)COC(=O)c2ccc(S(C)(=O)=O)c([N+](=O)[O-])c2)c1	none (no result: miR-21 reporter, Nrf2 ARE act, B2AR arrestin)
Cc1cc(C)c[n+](C2=C([O-])c3ccccc3C(=O)/C2=N\S(=O)(=O)c2cccs2)c1	A549 tox inconclusive, Nrf2 inh 21µM
COc1ccc(NC(=O)C2CCN(S(=O)(=O)c3cccc(-c4noc(C)n4)c3)CC2)cc1OC	none (no result: Nrf2 inh, B2AR arrestin)
COC(=O)c1cccc(NC(=S)NCCC2=CCCCC2)c1	Nrf2 inh 23µM
CCOc1cccc(OCCCOc2ccccc2)c1	none (no result: Nrf2 inh)
CCOc1cccc(N)c1	B2AR arrestin 16µM (no result: miR-21 reporter)
Nc1ccccc1OC1=NS(=O)(=O)c2ccccc21	none (no result: miR-21 reporter, Nrf2 ARE act, B2AR arrestin)
Brc1ccc(N/N=C(/N=Nc2nn[nH]n2)c2ccccc2)cc1	miR-21 reporter inconclusive, A549 tox inconclusive, Nrf2 inh 10µM
O=S(=O)(NCc1cccs1)c1ccc(Br)cc1	none
O=C(Nc1ccc(Br)cc1)c1ccc(F)c(S(=O)(=O)NCc2cccs2)c1	miR-21 reporter inconclusive, Nrf2 inh 12µM
O=C(O)CN1C(=O)/C(=C/c2ccc(-c3cccc(Cl)c3)o2)SC1=S	none (no result: miR-21 reporter, Nrf2 ARE act, B2AR arrestin)
COc1ccccc1NC(=O)CSc1nncn2c1cc1sccc12	none (no result: B2AR arrestin)
O=C(CSc1nncn2c1cc1sccc12)Nc1ccccc1C(F)(F)F	Nrf2 inh 21µM (no result: B2AR arrestin)
COc1ccc(OC)c(-c2nnc3n2N=C(c2ccc(OC)c(OC)c2)CS3)c1	Nrf2 inh inconclusive (no result: miR-21 reporter)
COc1ccc(OC)c(-c2nnc3n2N=C(c2ccc(OC)c(OC4CCCC4)c2)CS3)c1	Nrf2 inh 18µM (no result: miR-21 reporter)
COc1ccc(OC)c(C2=Nn3c(nnc3C3CCCCC3)SC2)c1	Nrf2 inh 21µM
CC(=O)c1ccccc1S(=O)(=O)N1CCN(c2nc(-c3cccs3)nc3ccccc23)CC1	none (no result: miR-21 reporter, Nrf2 ARE act, B2AR arrestin)
COc1ccc(CNCCC(c2ccc3c(c2)OCO3)c2ccccc2OC)cc1 (centres undefined)	none (no result: B2AR arrestin)
Cc1nn(C(C)C(=O)N2CCN(c3ccc(Cl)cc3)CC2)c(=O)c2cc3occc3n12 (centres undefined)	miR-21 reporter inconclusive, Nrf2 inh 21µM (no result: B2AR arrestin)
Cc1ccc2oc3c(c(=O)c2c1)C(c1cccc(Br)c1)N(Cc1ccco1)C3=O (centres undefined)	Nrf2 inh inconclusive
Cc1cc2oc3c(c(=O)c2cc1C)C(c1cccc(Br)c1)N(Cc1ccco1)C3=O (centres undefined)	Nrf2 inh 8.2µM
COc1ccccc1-c1cc(C(=O)Nc2c(C)nn(Cc3ccc(Cl)cc3)c2C)no1	miR-21 reporter inconclusive, A549 tox inconclusive, Nrf2 inh 18µM (no result: B2AR arrestin)
COc1cccc(-c2cc(C(=O)Nc3c(C)nn(Cc4ccccc4Cl)c3C)no2)c1	Nrf2 inh 6.5µM (no result: B2AR arrestin)
Cc1nn(Cc2ccccc2)c(C)c1NC(=O)c1noc2c1CCc1ccccc1-2	Nrf2 inh inconclusive
COc1ccc(-c2cc(C(=O)Nc3c(C)nn(Cc4ccc(Cl)cc4)c3C)no2)cc1	A549 tox inconclusive, Nrf2 inh inconclusive
Cc1nn(Cc2ccc(Cl)c(Cl)c2)c(C)c1NC(=O)c1sc2ccccc2c1Cl	Nrf2 inh 15µM
COc1ccc2c(c1)CCc1c(C(=O)Nc3c(C)nn(Cc4ccc(C)cc4)c3C)noc1-2	miR-21 reporter inconclusive, Nrf2 inh 15µM (no result: B2AR arrestin)
COc1ccc(-c2cc(C(=O)Nc3c(C)nn(Cc4ccccc4Cl)c3C)no2)cc1OC	none (no result: Nrf2 inh)
CCCN(C(=O)Cn1ncc2c([nH]c3ccccc32)c1=O)c1ccc(F)cc1	none (no result: B2AR arrestin)
CCN(C(=O)c1cn(-c2cccc(OC)c2)c(=O)c2ccccc12)c1ccccc1C	none (no result: B2AR arrestin)

From PubChem BioAssay
